This is an account of results in PubChem BioAssay (EPA / NIEHS).

The entries are a selection whose mix differs from that of the whole data set. Calls of active or inactive are those of the source. The calls were made as follows: active = hit-call score of the fitted dose curve at least 0.9, where 1 is the maximum; inactive = score below 0.9.

A short description of this assay: ATG_ERE_CIS: Attagene CIS-FACTORIAL HepG2 Assay for Estrogen Response Element (ERE) (AID 2282940). As to conditions: HepG2 ERE cis-reporter, Attagene RNA transcript; actives raise or lower the signal. On the procedure: ATG_CIS is a cell-based, multiplexed-readout assay that uses HepG2, a human liver cell line, with measurements taken at 24 hours after chemical dosing in a 24-well plate.ATG_ERE_CIS is one of 52 assay component(s) measured or calculated from the ATG_CIS assay. It is designed to make measurements of mRNA induction, a form of inducible reporter, as detected with fluorescence intensity signals by Reverse transcription polymerase chain reaction (RT-PCR) and Capillary electrophoresis technology.Data from the assay component ATG_ERE_CIS was analyzed into 1 assay endpoint. This assay endpoint, ATG_ERE_CIS, was analyzed with bidirectional fitting relative to DMSO as the negative control and baseline of activity. Using a type of inducible reporter, measures of mRNA for gain or loss-of-signal activity can be used to understand the reporter gene at the transcription factor-level as they relate to the gene ESR1. Furthermore, this assay endpoint can be referred to as a primary readout, because this assay has produced multiple assay endpoints where this one serves a reporter gene function. To generalize the intended target to other relatable targets, this assay endpoint is annotated to the nuclear receptor intended target family, where the subfamily is steroidal.
Human liver HepG2 cells are transiently transfected with multiple reporter transcription units (MRTUs) in 6-well plates using FuGene 6 reagent (Roche; 3 ml FuGene/1 mg DNA). The MRTU constructs are regulated by a cis-regulating element (promoter). […] A major difference between the CIS and TRANS system is that in CIS activities of endogenous TFs are measured, whereas the TRANS assay evaluates changes in activities of exogenous, chimeric NR-Gal4 proteins. […] At the end of 24 hour incubation, total RNA was isolated using TriZol reagent (Invitrogen). The isolated RNA is then reverse-transcribed using oligo(dT) primer and Mo-MLV reverse transcriptase (Invitrogen) with DNAse I (Ambion) treatment for 30 min. The one-tenth of the produced cDNA was amplified by PCR using Taq DNA polymerase (Invitrogen) and two reporter sequence-specific primers. The PCR products were fluorescently labeled by primer extension with 6-arboxyfluorescein (6-FAM) 5'-labeled reporter sequence-specific primer (2 min at 95 C, 20 s at 68 C and 10 min at 72 C) and these products were digested with 5U of HpaI (New England Biolabs) for 2h at 37 C. The fragments were purified using Qiaquick PCR columns (Qiagen), analyzed on an ABI 3130xL genetic analyzer (Applied Biosystems) with peak positions identified by using a set of X-rhodamine (ROX)-labeled MapMarker1000 molecular weight standards (BioVentures). The raw capillary electrophoresis data was processed using Attagraph software (Attagene).
`O=C(Cl)Oc1ccccc1`: the outcome was inactive.

For the molecule `CCCCO[P+](=O)OCCCC`, the call was inactive. The same measure, in the same setting: for `O=[p+]1oc2ccccc2c2ccccc21` (stereo not drawn) the value was “inactive”; for `ClP(Cl)c1ccccc1`, “inactive”; for `CCCCOP(OCCCC)OCCCC`, “inactive”. As for `O=P(Cl)(Oc1ccccc1)Oc1ccccc1`, the molecule was classed as inactive. As to `CCCCC(CC)CO[P+](=O)OCC(CC)CCCC` (stereo not drawn), the call was inactive. The same measure, in the same setting: for `O=[As]c1ccccc1` (stereo not drawn) the value was “inactive”; for `CN(C(=O)Cc1cccc2occc12)[C@H]1CC[C@@]2(CCCO2)C[C@@H]1N1CCCC1`, “inactive”.

Regarding `O=[P+](Oc1ccccc1)Oc1ccccc1`, the AC50 was active: 6.02 µM. Same read-out and setting: for `CC(C)CCCCCCCOP(OCCCCCCCC(C)C)Oc1ccccc1` the value was active: 100 µM.

Turning to `Cc1cc([N+](=O)[O-])cc([N+](=O)[O-])c1O`, the molecule was called inactive. For the molecule `O=[N+]([O-])c1ccc([N+](=O)[O-])cc1`, the result was inactive.

The term AC50 denotes the concentration giving half of the maximal activity seen.
